Test system: primary colon cancer samples from patients with high M3 receptor expression grown as organoids
Conditions: carbachol added on top of the antagonist zamifenacin; organoids without EGF and FGF

SMILES: C[N+](C)(C)CCOC(N)=O [carbachol]
- Reversal of the inhibition of organoid growth by the antagonist: able to reverse the inhibition
